Here are results for one substance from patent US20250241301A1, “COMPOSITIONS AND METHODS FOR INHIBITING PATHOGEN GROWTH ON PLANTS AND IMPROVING CROP SAFETY” (priority 2024, published 2025).

The test system of the series is potato tubers. The series is described as follows: T2H / hexylene glycol vapor treatment of potato tubers, skin lesion count (Table 9). Particulars: T2H 0.15 mL/kg alone or in mixture, HG alone 0.45 ml/kg, n = 5 tubers.

In the case of hexylene glycol [HG], where the note is “Cecile”, the “Total No. of Lesions 48 h” value is given as 10, the “Total No. of Lesions 96 h” value came out at 6 and the “Total No. of Lesions TOTAL” value turned out to be 16. For the same substance, for the setting “Isabella”, the “Total No. of Lesions 48 h” value is 9, the “Total No. of Lesions 96 h” value worked out at 1 and the “Total No. of Lesions TOTAL” value came out at 10.
